Results: US5244920A, “Pharmaceutical compositions having therapeutical activity based on mercaptoethansulphonic arginine salt” (Schering Spa, priority 1985, dated 1993)

Test: in vivo
Settings: acute toxicity, species and route not given

| SMILES | LD50 [mg/kg] |
| --- | --- |
| O=S(=O)(O)CCS [sodium salt, sodium mercaptoethansulphonate, reference compound] | 2080 |
| O=S(=O)(O)CCS [Example 2, arginine mercaptoethansulphonate] | > 2000 |

Counter-ions that a name gives are not always drawn.
